Where two headings read alike, the source gives them in different places.
What was measured:
sciatic nerve [1] = assay: Rat sciatic nerve in vivo permeability of fluorescein compounds (confocal); settings: 4 hours after perineural injection of 0.3 mL in PBS
[2] = test system: sciatic nerves and surrounding tissues
rats = assay: Irritancy: licking behavior after intraplantar administration; settings: for total duration of licking behavior: first 5 minutes; for frequency of licking within 5 minutes after injection: n=4
sciatic nerve [3] = assay: Rat sciatic nerve block: nociceptive axon blockade (hotplate thermal latency); assay type: in vivo, Sprague-Dawley rats
Log P = settings: method not stated

For 5-Carboxyfluorescein, the “fluorescence distribution / permeation into the sciatic nerve” value (sciatic nerve [1]) was “greater permeability into the nerve endoneurium” and the “fluorescence distribution / permeation into the sciatic nerve” value (sciatic nerve [1]; listed as 5 FAM) was “uniform fluorescence distribution was observed within and outside the sciatic nerve endoneurium”.

For `COc1cc(CNC(=O)CCCC/C=C/C(C)C)ccc1O` [capsaicin], the “Inflammation Score (median; range 0-4)” value ([2]; 2 mg, 4 days) was 3 (range [1-4]), the “Myotoxicity Score (median; range 0-6)” value ([2]; 2 mg, 4 days) was 0 and the “Inflammation Score (median; range 0-4)” value ([2]; 2 mg, 4 days, listed as Capsaicin) was 3. The “Inflammation Score (median; range 0-4)” value ([2]; 2 mg, 14 days) was 1.5, the “Myotoxicity Score (median; range 0-6)” value ([2]; 2 mg, 14 days) was 0 and the “myotoxicity score in one rat (out of 3), perifascicular internalization of the nucleus” value ([2]; 2 mg, after 4 days) was 1. The “Inflammation Score (median; range 0-4)” value ([2]; 3 mg, 28 days) was 1, the “Myotoxicity Score (median; range 0-6)” value ([2]; 3 mg, 28 days) was 0 and the “unmyelinated C-fibers / axon diameter by TEM” value ([2]; 3 mg, 28 days post-injection, versus no injection control) was “hypertrophy of C-fibers was observed”. The “appearance of surrounding tissues at dissection” value ([2]; 2-3 mg perineural injection) was “reddish and swollen”, the “toluidine blue stained sciatic nerve sections” value ([2]; 2-3 mg, 14 days after injection) was “Demyelinated axons were also observed” and the “total duration of licking behavior” value (rats; 0.05% (w/v)) was 31.00 ± 14.03 s. The “frequency of licking within 5 minutes after injection” value (rats; 0.05% (w/v)) was 4.75±1.26 times, the “total duration of licking behavior” value (rats; 0.1% (w/v)) was 48.77 ± 19.23 s and the “frequency of licking within 5 minutes after injection” value (rats; 0.1% (w/v)) was 9.25±4.79 times.

For `COc1cc(CNC(=O)CCCC/C=C/C(C)C)ccc1OC[C@H]1OC(O)[C@H](O)[C@@H](O)[C@H]1O` (some centres unmarked) [Gal-CAP prodrug, galactose-capsaicin prodrug], the “successful nociceptive axon blockade” value (sciatic nerve [3]; 3 mg in 0.3 mL PBS with 2.5% w/v Tween 20) was 37.5% and the “duration of nociceptive axon blockade” value (sciatic nerve [3]; single injection of 3 mg in 0.3 mL at sciatic nerve) was 0.88 ± 1.46 h.

With fluorescein isothiocyanate the Log P (Log P) was 3.77.
